Key:
[1] = target: T1, alpha-synuclein/Synapsin III interaction (Homo sapiens, UniProt O14994+P37840); assay: Acceptor photobleaching FRET of alpha-synuclein/Synapsin III interaction in neuronal-differentiated SK-N-SH cells; type: cell-based; settings: 10 μM, 15 min, neuronally differentiated SK-N-SH cells
T1 construct: expressed in transfected cells; host or cells: neuronal-differentiated (retinoic acid) human SK-N-SH neuroblastoma cells, transient transfection with Lipofectamine 3000
Procedure: The ability of the different compound to stimulate alpha-synuclein/Synapsin III interaction was evaluated by acceptor photobleaching FRET or FLIM in neuronal-like cells. In particular, we used neuronal-differentiated SK—N—SH neuroblastoma cells transiently transfected with red fluorescent protein (RFP)-tagged human wild type alpha-synuclein and green fluorescent protein (GFP)-tagged the human 63 kDa Synapsin III isoform.
Acceptor photobleaching FRET microscopy allows an accurate evaluation of protein-protein interaction through the measurement of FRET efficiency. This parameter is indicative of the increase of donor fluorescence after complete photobleaching of the acceptor fluorescence, within a FRET pair of fluorophores (where the emission wavelength of a donor falls within the excitation wavelength of an acceptor). […] We thus measured donor (GFP-Synapsin III) fluorescence after the complete photobleaching of the acceptor (RFP-alpha-synuclein) in the cells that were treated for 15 min with MPH, I-threo, IV-threo, V-threo or VI-threo at 10 μM concentration. […] Fixed cells were analyzed by means of a Zeiss confocal laser microscope LSM 880 (Carl Zeiss) with the laser set on A=488-543. After identifying double positive cells three-to-six regions of interest (ROI) were analyzed for 4 series. […]

Chains of the proteins cited; added tags and fusions are not shown. Lines headed by an entry give the natural chain unless they say otherwise; changes in a name come on top.
UniProt O14994: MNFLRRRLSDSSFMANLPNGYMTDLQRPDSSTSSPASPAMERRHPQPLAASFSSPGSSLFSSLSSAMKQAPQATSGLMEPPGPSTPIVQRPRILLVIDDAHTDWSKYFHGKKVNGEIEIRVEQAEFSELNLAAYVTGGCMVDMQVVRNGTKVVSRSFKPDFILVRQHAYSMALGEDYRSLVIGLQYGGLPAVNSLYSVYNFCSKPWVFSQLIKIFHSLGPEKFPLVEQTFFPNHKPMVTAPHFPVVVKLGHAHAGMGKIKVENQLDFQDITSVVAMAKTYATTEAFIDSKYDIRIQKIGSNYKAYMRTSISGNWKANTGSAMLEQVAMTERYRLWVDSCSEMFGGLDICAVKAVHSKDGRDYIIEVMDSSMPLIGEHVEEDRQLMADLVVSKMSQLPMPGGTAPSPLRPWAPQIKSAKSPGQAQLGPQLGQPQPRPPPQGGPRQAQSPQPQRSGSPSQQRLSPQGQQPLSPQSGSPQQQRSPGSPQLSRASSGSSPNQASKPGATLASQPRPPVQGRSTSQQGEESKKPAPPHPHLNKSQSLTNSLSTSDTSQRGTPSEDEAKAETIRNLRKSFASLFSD

[2] = tested on: alpha-synuclein aggregation in primary mesencephalic neurons; assay: Alpha-synuclein aggregation in primary mouse midbrain neurons exposed to glucose deprivation; type: cell-based; settings: I-threo, VI-threo 50 and 100 nM, MPH 100 nM

COC(=O)C(c1ccccc1)C1CCCCN1 (centres unmarked) [MPH, Methylphenidate]
% FRET efficiency change vs control untreated cells [1]: +3.4% | alpha-synuclein inclusion formation (total immunofluorescence intensity and particle size) [2]: did not reduce alpha-synuclein aggregation

Source: patent US12629359B2, “Structural analogues of methylphenidate as Parkinson's disease-modifying agents” (UNIVERSITA' DEGLI STUDI DI BRESCIA, priority 2020, dated 2026)
